Data on 1 compound can be found in US12415810B2, “2'-isopropyl-spiro (3,3'-pyrrolidine oxindole) liver X receptor regulator, preparation method therefor, and use thereof” (SHENZHEN CELL INSPIRE PHARMACEUTICAL DEVELOPMENT CO., LTD., priority 2019, dated 2025).

Chains of the proteins cited; added tags and fusions are not shown.
UniProt P55055, whole entry: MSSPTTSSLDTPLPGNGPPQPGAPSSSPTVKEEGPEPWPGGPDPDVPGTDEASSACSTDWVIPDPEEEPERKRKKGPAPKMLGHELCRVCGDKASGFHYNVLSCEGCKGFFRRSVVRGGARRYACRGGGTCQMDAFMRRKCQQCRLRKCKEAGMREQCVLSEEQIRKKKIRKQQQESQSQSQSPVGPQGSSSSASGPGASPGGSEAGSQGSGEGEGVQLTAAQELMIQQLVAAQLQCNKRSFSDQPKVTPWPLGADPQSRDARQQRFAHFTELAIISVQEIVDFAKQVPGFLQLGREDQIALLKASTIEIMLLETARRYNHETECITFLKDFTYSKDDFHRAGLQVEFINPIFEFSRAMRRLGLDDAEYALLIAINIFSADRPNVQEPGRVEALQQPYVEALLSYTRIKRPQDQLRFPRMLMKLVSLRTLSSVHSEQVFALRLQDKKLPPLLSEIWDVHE

The test has as its target T1, LXRβ (Homo sapiens, UniProt P55055).
T1 construct: expressed in transfected cells; host or cells: HEK293T
As to the kind of experiment: Liver X receptor activity test, dual-luciferase reporter gene in HEK293T cells (pSG5/hLXRβ + hRXRα). It counts as cell-based. Particulars: HEK-293T, 20 h, read-out: LXRβ % Inverse agonist effect. How it is done:
(1) Cell culture: human embryonic kidney cells (HEK293T cells) were cultured in DMEM (high glucose) medium containing 10% fetal bovine serum and 1% penicillin-streptomycin under conditions of 37° C. and 5% CO2.
(2) Transfection: HEK293T cells were seeded in a 96-well plate with a cell density of 2×10^4 cells/well. After 24 hours, the cells were transfected according to instructions of Lipofectamine™ 3000 reagent. The specific steps of transfection were as follows: • (1) adding 15 μL of L3000 reagent to 500 μL of DMEM (high sugar) medium, and vortex oscillating for 2 seconds; • (2) mixing 6.5 μg of pGL3/(DR-4)-c-fos-FF-luc plasmid, 0.13 μg of pCMV/Renilla-luc plasmid, 1.3 μg of pSG5/hLXRα (or pSG5/hLXRβ plasmid), 1.3 μg of pSG5/hRXRα plasmid, and 19 μL of P3000 reagent in 500 μL of DMEM (high sugar) medium; • (3) adding the plasmid mixture to a liposome mixture and standing by at room temperature for 20 minutes; and • (4) adding 10 μL of liposome-DNA solution to each well of the 96-well plate, and gently shaking the 96-well plate to mix well.
(3) Drug intervention: after 5 hours of transfection, the compounds to be tested were added, and the plate was placed in an incubator to continue culturing for 20 hours. […]
Result processing: the results were analyzed using Renilla luciferase activity to correct the firefly luciferase activity.
In general terms: In a reporter assay the amount or activity of a reporter protein is the signal.

For `CCOC(=O)c1ccc(CN(Cc2ccc(-c3cccc(S(C)(=O)=O)c3)cc2)S(=O)(=O)c2c(C)cc(C)cc2C)o1` [SR9238, reference compound], the Emax stood at 78%.
